The structures appear in SMILES notation.

A short description of this series: Microsomal stability assay, CD-1 mouse liver microsomes. It counts as in vitro ADME. The procedure:
A total of 445 μL of the working solution was transferred into prewarmed incubation plates for treated (T60) and control (NCF60) measurements. After preincubation (10 minutes at 37°C with constant shaking), 54 μL was transferred to the blank plate, followed by 6 μL of NADPH and 180 μL quenching solution. In parallel, 5 μL of WCDD301 (100 μM) was added into incubation plates (T60 and NCF60) containing microsomes and mixed thoroughly (3 times). For the NCF60 plate, 50 μL of buffer was added, mixed (thoroughly, 3 times), shaken, and incubated at 37°C for 60 minutes. In the quenching plate T0, quenching solution (180 μL) and NADPH cofactor (6 μL) were added. For T60 plate, 54 μL of the mixture was placed into the quenching plate (for T0 point), followed by adding 44 μL NADPH cofactor with shaking incubation at 37°C for 60 minutes. Quenching solution (180 μL) was added to quenching plates at 5, 15, 30, 45, and 60 minutes, and 60 μL of sample was transferred from T60 plate per time point to the quenching plates. For the NCF60 plates, 60 μL sample from the NCF60 incubation plate was transferred to the quenching plate (containing quenching solution) at the 60-minute time point. After plates were shaken for 10 minutes and centrifuged (1,750g, 20 minutes at 4°C), 80 μL of the supernatant was transferred into 240 μL HPLC water for LC-MS/MS analysis. […]

In turn, `O=C(O)Cc1ccccc1Nc1c(Cl)cccc1Cl` [Diclofenac] gave an Intrinsic microsomal clearance of 29.2 µL/min/mg.

These data come from publication PMC10906223, “An orally available compound suppresses glucagon hypersecretion and normalizes hyperglycemia in type 1 diabetes” (JCI Insight, 2024).
